Key:
[1] = target: rat C1a calcitonin receptor (rat), P32214; experiment: cell-based or functional assay
[2] = target: amylin receptor (RNA membranes); experiment: displacement of 125I-rat amylin from RNA membranes
[3] = target: rat C1a calcitonin receptor (rat) (UniProt P32214); experiment: displacement of 125I-human calcitonin from C1a-HEK cell membranes
[4] = target: rat C1a calcitonin receptor (rat) (UniProt P32214); experiment: cell-based or functional assay

Row | Calcitonin Function (Adenylate Cyclase), ED50 [1] [nM] | IC50 [2] [nM] | IC50 [3] [nM] | Calcitonin Function (Adenylate Cyclase), ED50 [4] [nM] | Binder
1 | 19 |  |  |  | CNTATCVLGRLSQELHKLQTYPRTNVGSNTY (here or on the partner: N-terminal acetyl; mPEG40KD on the side-chain amine of Lys 18 (Formula (I)/Cmpd 1 numbering; residue 17 of this chain); C-terminal amide) [Cmpd 173 (Acetyl-[K^18(mPEG40KD)]-Cmpd 2)]
2 | > 1000 |  |  |  | CNTATCVLGKLSQELHRLQTYPRTNVGSNTY (here or on the partner: N-terminal acetyl; mPEG40KD on the side-chain amine of Lys 11 (Formula (I)/Cmpd 1 numbering; residue 10 of this chain); C-terminal amide) [Cmpd 172 (Acetyl-[K^11(mPEG40KD)]-Cmpd 2)]
3 | 130 |  |  |  | CNTATCVLGRLSQELHRLQTYPKTNVGSNTY (here or on the partner: N-terminal acetyl; mPEG40KD on the side-chain amine of Lys 24 (Formula (I)/Cmpd 1 numbering; residue 23 of this chain); C-terminal amide) [Cmpd 174 (Acetyl-[K24(mPEG40KD)]-Cmpd 2)]
4 | 6.5 | 11 |  |  | CNTATCVLGRLSQELHRLQTYKRTNVGSNTY (here or on the partner: N-terminal acetyl; mPEG40KD on the side-chain amine of Lys 23 (Formula (I)/Cmpd 1 numbering; residue 22 of this chain); C-terminal amide) [Cmpd 171 (Acetyl-[K^23(mPEG40KD)]-Cmpd 2)]
5 | 1.2 | 15 |  |  | CNTATCVLGRLSQELHRLQTKPRTNVGSNTY (here or on the partner: N-terminal acetyl; mPEG40KD on the side-chain amine of Lys 22 (Formula (I)/Cmpd 1 numbering; residue 21 of this chain); C-terminal amide) [Cmpd 170 (Acetyl-[K^22(mPEG40KD)]-Cmpd 2)]
6 |  |  | 5.2 | 2.2 | CNTATCVLGRLSQELHRLQKYPRTNVGSNTY (N-terminal acetyl; mPEG40KD on the side-chain amine of Lys 21 (Formula (I)/Cmpd 1 numbering; residue 20 of this chain); C-terminal amide) [Cmpd 156 (Acetyl-[K^21(mPEG40KD)]-Cmpd 2)]

Reference: US20140249076A1, “AMYLIN-CALCITONIN CHIMERIC PEPTIDES CONJUGATED TO DURATION ENHANCING MOIETIES” (AMYLIN PHARMACEUTICALS, LLC, priority 2011, published 2014)
